Assay results as given in ChEMBL document CHEMBL3526069, “Human pharmacokinetic prediction of UDP-glucuronosyltransferase substrates with an animal scale-up approach” (Drug Metab Dispos, 2011).

Assays:
Nucleic Acid [1] = details: mouse, in vivo
Nucleic Acid [2] = details: rat, in vivo
Nucleic Acid [3] = details: rhesus monkey, in vivo
Nucleic Acid [4] = details: dog, in vivo
Nucleic Acid [5] = details: human, plasma

NS(=O)(=O)c1cc(C(=O)O)c(NCc2ccco2)cc1Cl [FUROSEMIDE]
Rblood_plasma (Nucleic Acid [1]): 0.96 | Rblood_plasma (Nucleic Acid [2]): 1.33 | Rblood_plasma (Nucleic Acid [3]): 1.13 | Rblood_plasma (Nucleic Acid [4]): 1.46 | Rblood_plasma (Nucleic Acid [5]): 0.7
